From patent US4910214A, “Optical isomer of an imidazole derivative medetomidine as an alpha-2-receptor agonist” (Farmos Yhtyma Oy, priority 1987, dated 1990)

Key:
α2 -receptors = type: binding, rat; settings: ratio of 3H-prazosin IC50 to 3H-clonidine IC50
Description: The selectivity of the d-enantiomer as an α2 -agonist was studied in receptor binding experiments using rat brain membranes. […] 108, 163-9, 1985.

α1 -receptors = test: 3H-prazosin displacement, receptor binding in rat brain membranes
Description: The selectivity of the d-enantiomer as an α2 -agonist was studied in receptor binding experiments using rat brain membranes. The ability of the d-isomer and the reference compounds to compete with ^3 H-clonidine (for α2 -receptors) and ^3 H-prazosin (for α1 -receptors) was studied essentially as described by Virtanen and Nyman in Eur. J. Pharmac. 108, 163-9, 1985. Results of the test are presented in Table 2, where the ability of the studied agents to compete with ^3 H-clonidine and ^3 H-prazosin binding is expressed as the IC50 -value (molar concentration of the competing ligand needed to displace 50 percent of the radioactive ligand).

## Cc1cccc(Cc2c[nH]cn2)c1C [detomidine]
α2 -receptors
  α2 /α1 -selectivity: 65
α1 -receptors
  IC50: 0.242 µM
